Measurements from patent publication US9486491B2, “Collagen peptide composition production method, DPP-4 inhibitor, and antihyperglycemic agent” (Nippi, Incorporated, priority 2012, dated 2016).
In brackets after ≈: the same amount, converted by molar mass.

Amino acid sequences for entries named in this document (tags omitted). A change or cut given only in a name is not applied to a line headed by its entry.
UniProt P22411: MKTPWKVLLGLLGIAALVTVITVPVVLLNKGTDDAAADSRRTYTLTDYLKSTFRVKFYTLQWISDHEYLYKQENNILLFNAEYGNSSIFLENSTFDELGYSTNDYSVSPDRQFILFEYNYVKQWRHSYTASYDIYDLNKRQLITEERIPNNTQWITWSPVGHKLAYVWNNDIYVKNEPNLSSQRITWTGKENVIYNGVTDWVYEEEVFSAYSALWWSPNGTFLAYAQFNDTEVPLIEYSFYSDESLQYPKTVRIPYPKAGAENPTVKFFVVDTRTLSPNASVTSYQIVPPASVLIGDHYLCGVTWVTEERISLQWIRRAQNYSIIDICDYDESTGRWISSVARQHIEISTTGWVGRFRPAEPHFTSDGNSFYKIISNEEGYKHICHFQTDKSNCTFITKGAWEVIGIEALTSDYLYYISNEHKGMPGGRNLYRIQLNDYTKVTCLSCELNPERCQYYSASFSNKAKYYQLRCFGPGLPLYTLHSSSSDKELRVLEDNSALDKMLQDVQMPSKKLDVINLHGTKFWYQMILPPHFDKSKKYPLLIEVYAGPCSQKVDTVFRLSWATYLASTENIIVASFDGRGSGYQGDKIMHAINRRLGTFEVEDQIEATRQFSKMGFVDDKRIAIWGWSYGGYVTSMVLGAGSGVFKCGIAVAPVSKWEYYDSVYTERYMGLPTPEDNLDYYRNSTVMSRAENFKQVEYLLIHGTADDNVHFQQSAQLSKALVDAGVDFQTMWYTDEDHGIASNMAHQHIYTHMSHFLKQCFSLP

Target: T1, DPP-4 (derived from porcine kidney) (Sus scrofa, UniProt P22411)
T1 construct: purchased Sigma; host or cells: porcine kidney (tissue-derived enzyme)
Assay: DPP-4 inhibition rate / IC50 value measurement (Gly-Pro-MCA fluorescence)
Format: biochemical
Conditions: individual oligopeptides
Experimental: Thirty-five μl of sample solution obtained by dissolving a sample in 50 mM tris-hydrochloric acid buffer (pH 7.5) and 15 μl of DPP-4 (manufactured by Sigma, derived from porcine kidney; 8.6 mU/ml) that was dissolved in 50 mM tris-hydrochloric acid buffer (pH 7.5) were mixed in a microtiter plate well (manufactured by NUNC, trade name “237015”) and incubated at 37° C. for 10 minutes.
To this, 50 μl of substrate solution (obtained by dissolving glycylproline-4-methylcoumarin-7-amide (Gly-Pro-MCA) in 50 mM tris-hydrochloric acid buffer (pH 7.5) at 10 μM) kept at 37° C. in advance was added and mixed to react at 37° C. for 20 minutes.
The fluorescence intensity of 7-amino-4-methylcoumarin (AMC) released by DPP-4 was measured with time using a microplate reader-type fluorescence detector (manufactured by Corona Electric Co., Ltd., trade name “SH-9000”). As for the wavelength used for the measurement, the excitation wavelength was 380 nm and the measurement wavelength was 460 nm Instead of sample, 50 mM tris-hydrochloric acid buffer (pH 7.5) in an identical amount was employed as a control and the fluorescence intensity thereof was measured.
The activity of DPP-4 was expressed in an average gradient of change in the amount of fluorescence intensity during a reaction time. As for a DPP-4 inhibition rate, difference was calculated by, with the control as 100%, subtracting the activity of sample from the above-mentioned control to use as the inhibition rate (%).
According to the above method of measuring the DPP-4 inhibition rate, a 50% inhibitory concentration (IC50 value) of the DPP-4 activity in terms of one ml of reaction system was calculated by using the inhibition rates obtained by changing the concentration of sample.

IC50 value [µg/mL]	Structure (SMILES)
100 (≈ 369 µM)	CC(C)[C@H](NC(=O)[C@@H]1CCCN1C(=O)CN)C(=O)O [GlyProVal]
14 (≈ 49.1 µM)	CC(C)C[C@H](N)C(=O)N1CCC[C@H]1C(=O)NCC(=O)O [LeuProGly]

Further lines, the compound ahead of its results:

Structure (SMILES)	IC50 value [µg/mL]
NCC(=O)N1CCC[C@H]1C(=O)N[C@@H](CCC(N)=O)C(=O)O [GlyProGln]	93 (≈ 310 µM)
C[C@H](N)C(=O)N1CCC[C@H]1C(=O)NCC(=O)O [AlaProGly]	8 (≈ 32.9 µM)

Same assay, conditions: individual oligopeptides; read-out: IC50 value (mg/ml) (converted)

IC50 [µM]	Structure (SMILES)
548	NCC(=O)N1CCC[C@H]1C(=O)N[C@@H](CO)C(=O)O [GlyProSer]
292	C[C@H](NC(=O)[C@@H]1CCCN1C(=O)CN)C(=O)O [GlyProAla]
